## Apparent affinities of Ab-14 variants for a coronavirus HR2 peptide

The target is the same throughout: PDVDLGDISGINAS, from the HR2 region of SARS-CoV-2 spike.

The variants keep the light chain, the linker and the frameworks of Ab-14 (scFv order VH, the linker GGGGSGGGGSGGGGS, VL).
VH: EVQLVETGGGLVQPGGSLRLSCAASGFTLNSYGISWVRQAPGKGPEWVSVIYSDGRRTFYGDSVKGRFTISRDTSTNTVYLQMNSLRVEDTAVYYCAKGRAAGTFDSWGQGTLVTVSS
VL: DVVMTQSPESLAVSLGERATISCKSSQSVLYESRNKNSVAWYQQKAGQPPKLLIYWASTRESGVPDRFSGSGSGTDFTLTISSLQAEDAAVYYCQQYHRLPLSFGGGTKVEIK

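The starting antibody came from a phage panning campaign against this peptide. Variants in AAYL49 differ from the parent at up to three CDR positions; double and triple changes were sampled at random. The assay is AlphaSeq: two haploid yeast populations carry antibody and antigen on their surface. Pairs that bind mate more often; barcode pairs of the diploids are counted by sequencing. Scores were corrected for input abundance and mapped to Kd with protein pairs of known affinity run in the same pool. Mating was done three times.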

Variants are written as CDR1, CDR2 and CDR3 of the heavy chain (limits as in the source). Parent: GFTLNSYGIS, VIYSDGRRTFYGDSVK, GRAAGTFDS.
The read-out is the apparent dissociation constant on a log10 scale (nM): the lower, the stronger.
The mean shown is taken over the replicates in which the pair was detected.
Where no diploid with the target was found in any replicate, the entry reads "nd": below detection, most likely a poor binder, though not proof of it.
The list is sorted by this average, lowest first, undetected variants last.
For reference, the parent read 0.65 as the reference entry and 4.11 (one replicate of three) as a member of this library.
Three control strains display no target. For library AAYL49, 15% of the pairings with them gave a signal, with a median of 4.06 and one signal in twenty below 2.83, so weak values seen in few replicates may be background.

| CDR-H1 | CDR-H2 | CDR-H3 | mean, log10 nM | detected |
|---|---|---|---|---|
| GFTLNDYGIS | VIYSDGRRTAYGDSVV | GRAAGTFDS | 0.00 | 3/3 |
| GFTLNSYGIS | VIYSDGMRTFYGDSVK | GQAAGTFDL | 0.44 | 3/3 |
| GFRLNSYGIS | VIYSDGRRTFYGDSVK | GQIAGTFDS | 0.45 | 3/3 |
| GFTLNSYGIS | VIYSDGRRTFYGDSVR | GRAASTFDS | 0.63 | 3/3 |
| GFTLNSYGIS | VIYSDGRRTFYGDSVC | GRVGGTFDS | 1.73 | 3/3 |
| GFDLNSYGIS | VIYSDGRHHFYGDSVK | GRAAGTFDS | 1.81 | 3/3 |
| GFTLNSYGIS | VIYYDGRRTFYGDAVY | GRAAGTFDS | 3.19 | 2/3 |
| GFTLNSYGIS | VIYTDGRRTFYGDSVK | GYAAGTFDS | 3.28 | 2/3 |
| GFTLNSYGIS | VIYSDGRRTFYWDSVK | AIAAGTFDS | 3.31 | 1/3 |
| GFTLNSYGNS | WIYSDGRRTWYGDSVK | GRAAGTFDS | 3.35 | 1/3 |
| GWTLNSYGIS | VIYSDVRRTFYGDSWK | GRAAGTFDS | 3.51 | 1/3 |
| GFTLNSYGIS | VINSDGRRTFYGDSVK | GRAAGTFML | 3.54 | 2/3 |
| GFTLNSYGES | VIYSDGRRTFYGDSVK | GRMIGTFDS | 3.66 | 1/3 |
| GFTLNSMGIS | VIYSDGRRTFYGQSVK | GRAAGTTDS | 3.73 | 1/3 |
| PFLLNSYGIS | SIYSDGRRTFYGDSVK | GRAAGTFDS | 3.91 | 1/3 |
| GFTLNSYGHS | GIYSDGRRTFYGDSVK | GRAAGTFDS | 4.28 | 2/3 |
| GFTLNSYAIS | VIYQDGRRTFYGDSVK | GRAAGTFDI | 4.30 | 1/3 |
| GFTLNSYGIS | VSYSDGRRTFYGDSNK | GRASGTFDS | 4.30 | 3/3 |
| GFTLNSYGIS | VIYSDGRRCFYGDSVM | GDAAGTFDS | 4.65 | 2/3 |
| GNTLNSYGIS | VIYSDGRRWCYGDSVK | GRAAGTFDS | 4.75 | 2/3 |
| GFTLNSYGIS | VFYSDGRRTFYPDSVK | GWAAGTFDS | 4.77 | 1/3 |
| GITLNSYGIS | VIYSDGRRTFYGDSDK | GRAAGTNDS | 4.82 | 1/3 |

Further variants, results first:

| mean, log10 nM | detected | CDR-H1 | CDR-H2 | CDR-H3 |
|---|---|---|---|---|
| 4.86 | 1/3 | GFTLNSYGIS | VIYSDGRRTTYGDSVK | GRASGTNDS |
| 4.96 | 2/3 | GFTLNSYGIS | SIYSDGRRTFDYDSVK | GRAAGTFDS |
| nd | 0/3 | IFTLNSYGIM | VIYSDGARTFYGDSVK | GRAAGTFDS |
| nd | 0/3 | GFTLNSYGES | VIYSDGRRIFYGDSVK | GRAAGTFRS |
| nd | 0/3 | GFTLNSYEIS | VIYSNGRRTFYGDSVK | GRAAGTFQS |
| nd | 0/3 | GFTFNSYGIS | VIYSDGRRTFSGDSVK | GRAAGTFDR |
| nd | 0/3 | GFTENSYGIS | VIYSHGRRTFYPDSVK | GRAAGTFDS |
| nd | 0/3 | GFTLNSYGIS | VIHSDGRCTIYGDSVK | GRAAGTFDS |
| nd | 0/3 | GFTLNSWGIS | VIYSNGRRTFYGDNVK | GRAAGTFDS |
| nd | 0/3 | GFTLNEYGIS | VKYSDGRRTFYGDSVK | GRLAGTFDS |
| nd | 0/3 | GFMSNSYGIS | VILSDGRRTFYGDSVK | GRAAGTFDS |
| nd | 0/3 | GFTLNSYGIS | VIASDGRETFYGDSWK | GRAAGTFDS |
| nd | 0/3 | GFTLNSYGIN | VIYSDGQRTFYGDMVK | GRAAGTFDS |
| nd | 0/3 | GFTLNSYKIS | FIYSDGRRTFYGDSVK | GRAAGTFDS |
| nd | 0/3 | GFTLNSYGIS | VIYSDGRRTKYGDSKK | GRAAGTFSS |
| nd | 0/3 | GFTLNSYGIS | MIYSDGRRTGYMDSVK | GRAAGTFDS |
| nd | 0/3 | GFTLNSYGIK | VIYSDGRRTFYGDSMK | GRAAGTFDS |
| nd | 0/3 | GFTLNSYGIS | VIYEDGRRTFYGDSVK | GTAAGTFDS |
| nd | 0/3 | GQTLNSYGIS | VIYSCGNRTFYGDSVK | GRAAGTFDS |
| nd | 0/3 | GFTLESYGIS | VIYSDGRRTFPGDSVK | GRAAGTFDW |
| nd | 0/3 | GFTGNSYGIS | VIYSDGRRTFYGDSVK | GRAIGTFHS |
| nd | 0/3 | GFTLNSYGIS | VIDSDGRRTFYGDSVK | LDAAGTFDS |
| nd | 0/3 | GFTLNSYGIS | VITSDGRVTFYGDLVK | GRAAGTFDS |

The closing 2 entries, repeated:

CDR-H1	CDR-H2	CDR-H3	mean, log10 nM	detected
GFTLNSYGIS	VIDSDGRRTFYGDSVK	LDAAGTFDS	nd	0/3
GFTLNSYGIS	VITSDGRVTFYGDLVK	GRAAGTFDS	nd	0/3

Data: MIT Lincoln Laboratory AlphaSeq set, Engelhart et al. 2022, doi:10.1038/s41597-022-01779-4, as distributed in FLAb.